Among the data in ChEMBL document CHEMBL5247599, “New β-arylchalcogeno amines with procognitive properties targeting Carbonic Anhydrases and Monoamine Oxidases” (Eur J Med Chem, 2022) are Ka values, retold here.

Protein sequences, listed by entry. Tags and fused reporters are not part of them. Lines headed by an entry give the natural chain unless they say otherwise; changes in a name come on top.
UniProt Q9ULX7: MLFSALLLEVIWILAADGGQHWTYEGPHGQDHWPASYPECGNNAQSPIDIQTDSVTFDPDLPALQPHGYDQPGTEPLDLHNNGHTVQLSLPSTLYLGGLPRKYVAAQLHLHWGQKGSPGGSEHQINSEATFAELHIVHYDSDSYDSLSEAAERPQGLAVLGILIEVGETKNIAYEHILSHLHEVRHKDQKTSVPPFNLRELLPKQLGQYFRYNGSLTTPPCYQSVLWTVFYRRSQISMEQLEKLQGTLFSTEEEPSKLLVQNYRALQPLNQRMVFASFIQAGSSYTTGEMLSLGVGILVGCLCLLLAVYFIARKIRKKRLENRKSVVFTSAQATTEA
UniProt Q8N1Q1: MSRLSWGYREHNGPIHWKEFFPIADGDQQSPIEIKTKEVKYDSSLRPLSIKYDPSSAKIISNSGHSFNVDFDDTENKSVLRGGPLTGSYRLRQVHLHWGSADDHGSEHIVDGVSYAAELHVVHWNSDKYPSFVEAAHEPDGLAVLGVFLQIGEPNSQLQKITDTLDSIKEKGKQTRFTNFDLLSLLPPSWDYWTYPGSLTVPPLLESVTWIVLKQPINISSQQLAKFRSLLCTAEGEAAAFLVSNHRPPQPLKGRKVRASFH
UniProt Q9Y2D0: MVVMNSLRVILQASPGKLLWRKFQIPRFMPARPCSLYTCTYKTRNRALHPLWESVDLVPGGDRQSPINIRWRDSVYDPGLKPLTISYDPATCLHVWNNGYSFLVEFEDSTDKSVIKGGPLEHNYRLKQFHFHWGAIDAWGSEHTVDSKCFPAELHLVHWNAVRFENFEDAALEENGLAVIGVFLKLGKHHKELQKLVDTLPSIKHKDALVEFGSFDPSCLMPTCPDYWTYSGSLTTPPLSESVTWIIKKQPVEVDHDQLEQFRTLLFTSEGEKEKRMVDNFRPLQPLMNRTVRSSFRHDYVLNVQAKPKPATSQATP
UniProt O43570: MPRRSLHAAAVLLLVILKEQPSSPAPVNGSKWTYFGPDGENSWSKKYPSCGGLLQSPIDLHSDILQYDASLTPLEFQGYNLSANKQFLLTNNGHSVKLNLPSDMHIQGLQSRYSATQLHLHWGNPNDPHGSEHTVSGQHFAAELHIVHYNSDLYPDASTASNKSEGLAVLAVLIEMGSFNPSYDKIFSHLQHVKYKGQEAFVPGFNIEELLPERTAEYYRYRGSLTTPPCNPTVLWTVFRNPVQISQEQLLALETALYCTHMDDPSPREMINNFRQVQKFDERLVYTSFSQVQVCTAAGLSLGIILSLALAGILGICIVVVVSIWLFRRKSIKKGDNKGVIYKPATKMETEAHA

Molecules are shown by their SMILES.

Common to all, as to settings: filed as activator
For assay [1], the target named is Carbonic anhydrase 14 (Homo sapiens) (UniProt Q9ULX7). Nature of the assay: Binding affinity to human CA14 by phenol red dye based stopped flow CO2 hydration assay.
Assay [2] addresses Carbonic anhydrase 13 (Homo sapiens) (UniProt Q8N1Q1). Nature of the assay: Binding affinity to human CA13 by phenol red dye based stopped flow CO2 hydration assay.
For assay [3], the target named is Carbonic anhydrase 9 (Homo sapiens) (UniProt Q16790). Nature of the assay: Binding affinity to human CA9 by phenol red dye based stopped flow CO2 hydration assay.
In assay [4] the target is Carbonic anhydrase 5B, mitochondrial (Homo sapiens) (UniProt Q9Y2D0). Nature of the assay: Binding affinity to human CA5b by phenol red dye based stopped flow CO2 hydration assay.
The target of assay [5] is Carbonic anhydrase 12 (Homo sapiens) (UniProt O43570). As to the kind of experiment: Binding affinity to human CA12 by phenol red dye based stopped flow CO2 hydration assay.

In the case of `N[C@H](Cc1ccccc1)C(=O)O` [D-PHENYLALANINE], the Ka in assay [1] came to 7.21 µM; in assay [2] it was 0.051 µM; in assay [3], 9.3 µM; in assay [4] it was 0.072 µM; in assay [5] it was 0.37 µM.
